In the assay the test system is STAT3. Put plainly: HCS STAT3 assay. Type of assay: cell-based. As for the experimental part:
Compound samples (in 3-5 mg quantities) were evaluated in a variety of assays. All compound submissions were fully characterized (1H, 13C, IR, FIRMS), satisfied purity criteria (≥95% LC/MC, ELS).

“1-(3-(6-(4-Methoxyphenyl)-7-methyl-7H-[1,2,4]triazolo[3,4-b][1,3,4]thiadiazin-3-yl)-5-phenyl-1H-pyrazol-1-yl)ethanone [8A]”: the IC50 (commonly the midpoint of a concentration-inhibition curve) (Table 4) was determined as 17.9 ± 22.9 µM.
Under “Table 5, * average of 2 experiments”, `COc1ccc(C2=Nn3c(nnc3-c3cc(-c4ccc(Cl)cc4)n[nH]3)S[C@@H]2C)cc1` (single isomer, unassigned; ent-1) [24 (ent-1)] returned a half-inhibitory concentration (IC50) of 5.72 µM.
